Yeast mating assay 2: variants of the scFv Ab-95

The target is the same throughout: PDVDLGDISGINAS, from the HR2 region of SARS-CoV-2 spike.

The variants keep the heavy chain, the linker and the frameworks of Ab-95 (scFv order VH, a (GGGGS)3 linker, VL).
VH: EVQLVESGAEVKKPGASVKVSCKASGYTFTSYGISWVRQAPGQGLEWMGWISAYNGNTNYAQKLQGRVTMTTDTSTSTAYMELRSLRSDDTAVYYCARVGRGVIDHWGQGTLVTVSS
VL: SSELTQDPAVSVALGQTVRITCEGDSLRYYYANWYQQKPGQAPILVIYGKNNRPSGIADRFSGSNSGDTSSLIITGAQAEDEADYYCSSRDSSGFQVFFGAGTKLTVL

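Library AAYL52 holds single substitutions and randomly drawn double and triple substitutions in the CDRs. In AlphaSeq, yeast of one mating type display the scFv and yeast of the other type display the target. Binding brings cells together so that they mate, and sequencing counts the barcode pairs among the diploids. Each replicate has its own calibration line, from reference interactions of the BCL2 family. Mating was done three times.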

Substitutions are numbered in sequence along the VL above, starting at 1 (not Kabat). This list gathers variants with a substitution at S89 (VL, numbered from residue 1). The Kd shown is the geometric mean over detected replicates; a lower Kd is a better binder. "no signal" marks a missing value. The strain was present, yet no cells mated with the target were sequenced in any replicate, which points to weak or no binding.

Variant A32W/S55W/S89P gave 18 µM (1 of 3 replicates). Variant D25G/N52V/S89V showed 470 nM (3 of 3 replicates). Variant Y29A/S89P/Q96Y showed 11 µM (1 of 3 replicates). Variant Y29M/S89A/F95H gave 1.4 µM (3 of 3 replicates). With S55P/S88C/S89Q the result was 150 µM (1 of 3 replicates). With N51M/N52F/S89N the result was no signal (0 of 3 replicates). For S89R/S92T, the assay gave no signal (0 of 3 replicates). Variant Y29K/S89D showed 1.6 µM (3 of 3 replicates). With L27T/S89C/S93T the result was 230 nM (3 of 3 replicates).

For S89T/S93M, the assay gave 770 nM (2 of 3 replicates). Variant Y30M/S89H/F95I showed 21 nM (3 of 3 replicates). For S89E/G94I/V97N, the assay gave 2.4 µM (3 of 3 replicates). For N33W/N51E/S89P, the assay gave 61 µM (1 of 3 replicates). With N33C/S89Q the result was 120 µM (1 of 3 replicates). For Y31V/S89E/Q96V, the assay gave 5.8 µM (3 of 3 replicates). Variant A32H/S88P/S89W gave 22 µM (3 of 3 replicates). For Y31G/S55I/S89A, the assay gave 17 nM (3 of 3 replicates). For S88Q/S89Q/F95P, the assay gave no signal (0 of 3 replicates).

Variant K50D/N51P/S89A gave 1.7 µM (3 of 3 replicates). For Y29R/S89P/R90L, the assay gave 2.8 µM (2 of 3 replicates). For G24I/S26D/S89M, the assay gave no signal (0 of 3 replicates). Variant S55R/S89C showed 380 nM (3 of 3 replicates). With N33C/S55V/S89M the result was 9.0 µM (1 of 3 replicates). Variant Y30E/Y31F/S89G gave 91 nM (3 of 3 replicates). Variant G24Y/Y29R/S89R showed 8.5 µM (3 of 3 replicates). Variant D25V/L27Q/S89T showed 780 nM (3 of 3 replicates). Variant G49I/S89T/R90K gave 2.0 µM (1 of 3 replicates).

For P54C/S89F/S92A, the assay gave 8.3 µM (3 of 3 replicates). With S26Y/S89V/F95P the result was 1.4 µM (3 of 3 replicates). For S55R/S89R/F98Y, the assay gave no signal (0 of 3 replicates). For N33S/R53Y/S89N, the assay gave no signal (0 of 3 replicates). With S55I/S89K/S93W the result was 73 µM (1 of 3 replicates). Variant S26G/S89E/G94H gave 180 nM (3 of 3 replicates). Variant R28E/S89C/G94W showed 560 nM (3 of 3 replicates). For Y29I/S88V/S89Q, the assay gave 2.0 µM (1 of 3 replicates). Variant N33L/R53C/S89N showed no signal (0 of 3 replicates).

Variant E23N/L27Q/S89N showed 2.1 µM (1 of 3 replicates). Variant A32S/N33H/S89A showed 720 nM (1 of 3 replicates). Variant L27V/S89T/F95W showed 360 nM (3 of 3 replicates). Variant S89K/S92F/G94T showed 150 nM (3 of 3 replicates). Variant G24C/S89W/S92E gave 790 nM (3 of 3 replicates).

The 4 strongest on average among those seen in every replicate, once more:

| changes | apparent Kd | seen in |
|---|---|---|
| Y31G/S55I/S89A | 17 nM | 3/3 |
| Y30M/S89H/F95I | 21 nM | 3/3 |
| Y30E/Y31F/S89G | 91 nM | 3/3 |
| S89K/S92F/G94T | 150 nM | 3/3 |

Parent in this assay: reference entry 200 nM, copy in this library 180 nM. As a blank, each scFv also met three strains without target: over library AAYL52, 28% of these pairings were detected, typically at 8.2 µM and seldom below 800 nM.

Source: Engelhart et al. 2022 (doi:10.1038/s41597-022-01779-4), MIT Lincoln Laboratory and A-Alpha Bio; data file from the FLAb repository.